# Yeast mating assay 1: variants of the scFv Ab-14

Target: peptide PDVDLGDISGINAS, taken from heptad repeat 2 (HR2) of SARS-CoV-2 spike.

Parent scFv Ab-14: VH joined to VL by the linker GGGGSGGGGSGGGGS. Changes lie in the heavy chain CDRs alone.
VH: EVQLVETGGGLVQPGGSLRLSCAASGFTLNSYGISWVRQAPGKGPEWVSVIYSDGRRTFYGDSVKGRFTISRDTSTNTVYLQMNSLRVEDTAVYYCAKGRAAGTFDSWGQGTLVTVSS
VL: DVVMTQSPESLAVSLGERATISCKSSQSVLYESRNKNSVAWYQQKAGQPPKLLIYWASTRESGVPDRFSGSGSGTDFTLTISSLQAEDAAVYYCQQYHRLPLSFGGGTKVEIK

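AAYL49 was designed without a model: most single CDR substitutions and a random sample of double and triple ones. In AlphaSeq, yeast of one mating type display the scFv and yeast of the other type display the target. The frequency of each diploid, read from paired DNA barcodes, reflects how well the two displayed proteins bind. Scores were corrected for input abundance and mapped to Kd with protein pairs of known affinity run in the same pool. There are three technical replicates.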

Each variant is given by its three heavy chain CDRs, as the data file delimits them; those of the parent are GFTLNSYGIS, VIYSDGRRTFYGDSVK, GRAAGTFDS.
This list gathers variants with a substitution at T58 (VH, numbered from residue 1).
The read-out is the apparent dissociation constant on a log10 scale (nM): the lower, the stronger.
Replicates are averaged; those with no signal do not enter the mean.
A pair that was not seen in any replicate is written "no signal"; this usually means weak binding, but a binder can also be missed.
Empty control strains, which show no peptide, gave a signal in 15% of pairings with library AAYL49; the median was 4.06 and 95% of these signals were weaker than 2.83. No background was subtracted.

CDR-H1,CDR-H2,CDR-H3,"mean, log10 nM",replicates with signal
GFQLNSYGIS,VIYSDGRRNFYGDSVK,GRAAGTFDS,2.92,2/3
GFTLNSYGIS,VIYSDGSRNFAGDSVK,GRAAGTFDS,2.57,1/3
ACTLNSYGIS,VIYSDGRRDFYGDSVK,GRAAGTFDS,no signal,0/3
GFYLNSYGIS,VIYSDGRRMFYGDSVK,GRAAGTMDS,no signal,0/3
GFTLNSYGIS,VIYSDGRRMFYGCSVC,GRAAGTFDS,5.10,1/3
GFTLQSYGIS,VIYSDGRRDFYGDSVK,GRAAGWFDS,no signal,0/3
GFTLNSYGIS,VIYSDGRRGFYGDSSK,GRAAGPFDS,4.31,3/3
GFTLNSYGIS,VIYSDGRRQFYGDHVK,GRAAGSFDS,no signal,0/3
GFTLNSYAIS,VIYSDGVRLFYGDSVK,GRAAGTFDS,no signal,0/3
GFTLNSYGIS,VIYSDGRRPFYGDSVK,GRQAGTFDS,no signal,0/3
GFTANSYGIS,VIYSDGRRHFWGDSVK,GRAAGTFDS,no signal,0/3
GFTLNSQGIS,VIMSDGRRNFYGDSVK,GRAAGTFDS,no signal,0/3
GFTLNSYGIS,VIYSDGRIFAYGDSVK,GRAAGTFDS,no signal,0/3
GFTLNSYGIS,VDYSDGRRCFYGDSVK,GRDAGTFDS,no signal,0/3
GFTLNVYGFS,VIYSDGRRYFYGDSVK,GRAAGTFDS,4.45,2/3
GLTLNSYGIS,VIYSDGRRWFYGDSTK,GRAAGTFDS,4.01,3/3
GFTLNSYGIS,VIYSDGRRINYGDSVK,GREAGTFDS,2.73,3/3
GFTLNSYGIS,VIYSDGRRRFYGCSVK,GRAAGTFFS,no signal,0/3
GFTLNSYGIS,VIYSDGRRVSYGDVVK,GRAAGTFDS,1.78,3/3
GFTLNSYGIS,VVYSDGRREFYGDSVK,GQAAGTFDS,3.61,2/3
GFTLNSYGIS,VIYSDGRRMFYGWSVK,GRAAGTFDS,3.50,2/3
GFTQNSYGIS,VIYSDGRRDFYGDSKK,GRAAGTFDS,no signal,0/3
GFTLNSYGIS,VDYSDGRRLFYGDSVK,GRAAGTFDF,2.73,3/3
GFTLNSYGIS,VIYSDGRRIFIGDSSK,GRAAGTFDS,4.05,2/3
GFTLNSYKIS,VIYSDGRRAFYGLSVK,GRAAGTFDS,3.29,1/3
GFTLNSYGIS,VNYSDGRRKFYGDSSK,GRAAGTFDS,5.87,1/3
GFTNNSYGIS,VIYSDGRELFYGDSVK,GRAAGTFDS,no signal,0/3
GFTLNSYGIS,VIYSDGRREFSGDSVK,GRAAGTFDS,3.93,2/3
GFTHNSYGIS,VIYSDGRRCFYGDSVK,GRAAGTFDS,4.16,2/3
GFTTNSYGIS,VISSDGRRRFYGDSVK,GRAAGTFDS,no signal,0/3
GFVLNSYGIS,VIYSDGRRLFYGDSVK,GRAAGTFDF,4.08,3/3
GFTLNSYGIS,VIASDGRRIFYGDSVK,GRKAGTFDS,no signal,0/3
GFTLNSYGIS,VIYSDGRRWTYGDSVK,GRAAGTFDF,3.79,2/3
GFTLNSYGIS,VIYSDGRRSFIGDSVK,LRAAGTFDS,no signal,0/3
GFTLNSYGIS,VIYSDGRRQFEGDSVK,GMAAGTFDS,no signal,0/3
GFTLNSYGIS,VIYSDGRRNFYGQSVK,GRAAMTFDS,no signal,0/3
GFTLNSYGIS,VIYSDGRFLFYGDSVK,GRAAGTFDS,3.42,1/3
GFTLNPYGIS,VIYSDGRRYFYGDSVK,GRAAGTFDS,no signal,0/3
GFTLNSYGIS,VIASDGRRFFYGDSVK,GRAAGTFES,no signal,0/3
GFTLNSYGLS,VIYSDGRRYFYGDSVK,GRAEGTFDS,4.13,1/3
GFTLNSYGIS,VIYSDGRWQFYGDSVK,GRAEGTFDS,no signal,0/3
GFTLNSYGIS,VIYSWGRRGFYGDNVK,GRAAGTFDS,no signal,0/3
GFTLNSYGIS,VIYSDGRRDFYGDSVQ,GRAAGTFDS,3.82,2/3
GFTLNSYGIS,VIYSDGRRAFYGDSVK,GRWAGTFLS,1.01,3/3
GFTLNSYGIS,VIYSDGRRRFYGDSVP,GRAAGTQDS,no signal,0/3
GFTLNSYGIS,VIYSDGRHNFYGDSVK,GRAIGTFDS,no signal,0/3
GFTLNSYGIS,VDYSDGQRKFYGDSVK,GRAAGTFDS,no signal,0/3
GFTLNVYGIS,VIYSDGRRDFYGDSVY,GRAAGTFDS,no signal,0/3
GFTLNSYGIS,MIYSDGRRSFYCDSVK,GRAAGTFDS,5.64,2/3
GFTLNSYGIS,VIYSDGRRSFYGDSVK,GRAAGKFRS,2.17,3/3
GFTLNSYVIS,VIYSDGRRWFYGDSVK,VRAAGTFDS,4.83,3/3
GFPLNSYGIS,VIYSDGRRPFYPDSVK,GRAAGTFDS,4.20,1/3
GFTLNSYGIS,EIYSDGRREFYMDSVK,GRAAGTFDS,no signal,0/3
GFTLNSYGIS,AIYSDGRRHFYGDSVK,GRAAGTFNS,no signal,0/3
GFTLNSYGIS,VIYSDGFRDFYGDSVK,GRAFGTFDS,4.67,3/3
GFTLNSYGIS,VIYSDGVRSFYGDCVK,GRAAGTFDS,2.92,3/3
GFTLNSPGIS,VIYSDGRRIFYGDSQK,GRAAGTFDS,3.58,1/3
GFTLNSYGIS,VIYSDGRRQFYGDRVK,GRAAGTFDF,3.03,3/3
GFTLNSYGIS,VIYSVGRADFYGDSVK,GRAAGTFDS,no signal,0/3
GFTLNSYGIS,VIYSDGRRFFYTDSVK,NRAAGTFDS,1.85,3/3

Extract of 8 entries:

CDR-H1,CDR-H2,CDR-H3,"mean, log10 nM",replicates with signal
GFTLNSYGIS,VIYSDGRRSFIGDSVK,LRAAGTFDS,no signal,0/3
GFTLNSYGIS,VVYSDGRREFYGDSVK,GQAAGTFDS,3.61,2/3
GLTLNSYGIS,VIYSDGRRWFYGDSTK,GRAAGTFDS,4.01,3/3
GFTLNSYGIS,VNYSDGRRKFYGDSSK,GRAAGTFDS,5.87,1/3
GFTLNSPGIS,VIYSDGRRIFYGDSQK,GRAAGTFDS,3.58,1/3
GFTLNSYGIS,VIYSDGRRRFYGDSVP,GRAAGTQDS,no signal,0/3
GFTLNSYGIS,VIASDGRRIFYGDSVK,GRKAGTFDS,no signal,0/3
GFTLNPYGIS,VIYSDGRRYFYGDSVK,GRAAGTFDS,no signal,0/3

From the AlphaSeq antibody data of Engelhart et al. 2022 (doi:10.1038/s41597-022-01779-4), copy in the FLAb collection.